Data reported in patent US12492170B2, “Tetrahydro-1H-benzazepine compound as potassium channel modulator, preparation method and use thereof” (Shanghai Zhimeng Biopharma Inc., priority 2019, dated 2025).

Test system: SD rats
Assay: Safety research: single tail vein injection toxicity, maximum tolerated dose
Format: in vivo
Conditions: male SD rats; for toxicity: dose of 1 mg/kg
Protocol: Male Sprague-Dawley (SD) rats (SPF grade) were selected, divided into groups (3 rats per group), and administered via tail vein injection. Single administration, observed for 48 hours after administration. During the experiment, two cage-side observations and two detailed clinical observations were performed every day (observation was carried out before and 2 hours after the administration on the day of administration). Toxicity study animals were weighed and recorded every day, and food consumption of each animal for 24±1 hours was measured and recorded every day. At the end of the experiment (D3), euthanasia was performed by carbon dioxide inhalation anesthesia and the death of the animal was ensured by abdominal aorta/venous bleeding, and gross anatomy was performed and recorded.

Cc1cc2c(c(C)c1NC(=O)CC(C)(C)C)CCCCN2Cc1ccc(F)cc1 [Compound A1, N-(1-(4-fluorobenzyl)-6,8-dimethyl-2,3,4,5-tetrahydro-1H-benzazepine-7-yl)-3,3-dimethylbutanamide]
Detailed clinical observation (0.3 mg/kg): No obvious abnormalities | toxicity: transient slight toxicity

Cc1cc2c(c(C)c1NC(=O)CCC1CCCC1)CCCCN2Cc1ccc(F)cc1 [Compound A2, 3-cyclopentyl-N-(1-(4-fluorobenzyl)-6,8-dimethyl-2,3,4,5-tetrahydro-1H-benzazepine-7-yl)propionamide]
Detailed clinical observation (0.3 mg/kg): No obvious abnormalities | Detailed clinical observation (1 mg/kg): No obvious abnormalities

Cc1cc2c(c(C)c1NC(=O)CC(C)(C)C)CCCCN2Cc1ccc(Cl)s1 [Compound A6, N-(1-((5-chlorothiophene-2-yl)methyl)-6,8-dimethyl-2,3,4,5-tetrahydro-1H-benzazepine-7-yl)-3,3-dimethylbutamide]
Detailed clinical observation (0.3 mg/kg): No obvious abnormalities | Detailed clinical observation (1 mg/kg): No obvious abnormalities

Cc1cc2c(c(C)c1NC(=O)CC(C)(C)C)CCCCN2Cc1ccc(F)s1 [Compound A7, N-(1-((5-fluorothiophene-2-yl)methyl)-6,8-dimethyl-2,3,4,5-tetrahydro-1H-benzazepine-7-yl)-3,3-dimethylbutamide]
Detailed clinical observation (0.3 mg/kg): No obvious abnormalities | toxicity: transient slight toxicity

Cc1cc2c(c(C)c1NC(=O)CCC1CCCC1)CCCCN2Cc1ccc(F)s1 [Compound A8, 3-cyclopentyl-N-(1-((5-fluorothiophene-2-yl)methyl)-6,8-dimethyl-2,3,4,5-tetrahydro-1H-benzazepine-7-yl)propionamide]
Detailed clinical observation (0.3 mg/kg): No obvious abnormalities | Detailed clinical observation (1 mg/kg): No obvious abnormalities
